From EP0604355B1, “Akyl Substituted heterocyclic compounds” (N[…]/S, priority 1992, dated 1994)

Protein sequences, listed by entry. Tags and fused reporters are not part of them.
UniProt P23977, whole entry: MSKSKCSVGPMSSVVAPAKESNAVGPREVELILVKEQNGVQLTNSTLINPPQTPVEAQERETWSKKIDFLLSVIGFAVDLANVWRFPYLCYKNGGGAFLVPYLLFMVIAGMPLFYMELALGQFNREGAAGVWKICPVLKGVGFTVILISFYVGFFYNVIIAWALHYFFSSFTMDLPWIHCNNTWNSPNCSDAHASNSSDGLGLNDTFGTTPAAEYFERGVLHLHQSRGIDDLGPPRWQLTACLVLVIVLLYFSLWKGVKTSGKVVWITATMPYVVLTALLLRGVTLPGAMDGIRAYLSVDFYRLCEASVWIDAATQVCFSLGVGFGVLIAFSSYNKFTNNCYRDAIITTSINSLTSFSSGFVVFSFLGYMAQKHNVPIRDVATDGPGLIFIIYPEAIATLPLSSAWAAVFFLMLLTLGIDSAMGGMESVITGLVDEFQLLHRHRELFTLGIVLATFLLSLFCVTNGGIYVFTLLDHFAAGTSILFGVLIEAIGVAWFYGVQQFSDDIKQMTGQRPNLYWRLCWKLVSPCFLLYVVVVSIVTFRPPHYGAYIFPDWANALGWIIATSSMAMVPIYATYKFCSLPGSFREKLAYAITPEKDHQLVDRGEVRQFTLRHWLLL

Assays:
[1] = test system: haloperidol-induced catalepsy; experiment: animal or person; conditions: Rattus norvegicus, read-out: Minimum effective dose (peroral administration)
[2] = target: reuptake of dopamine in synaptosomes of rat forebrain (Rattus norvegicus, UniProt P23977); conditions: relative to Win 35,428

Structure (SMILES)	minimal effective dose [1]	times less potent as compared to the cis isomer (Win 35,428) as a dopamine reuptake inhibitor [2]
CN1[C@H]2CC[C@@H]1[C@H](c1nc(-c3ccccc3)no1)[C@@H](c1ccc(Cl)cc1)C2.Cl [(1R,2R,3S)-2-(3-Phenyl1,2,4-oxadiazol-5-yl)-3-(4-chlorophenyl)-tropane, hydrochloride]	0.25 mg/kg	
CN1[C@H]2CC[C@@H]1[C@H](c1nc(-c3ccccc3)no1)[C@@H](c1ccc3ccccc3c1)C2.Cl [(1R,2R,3S)-2-(3-Phenyl-1,2,4-oxadiazol-5-yl)-3-(2-naphthyl)tropane, hydrochloride]	0.25 mg/kg	
Cc1ccc([C@H]2C[C@@H]3CC[C@H]([C@@H]2c2nc(-c4ccccc4)no2)N3C)cc1.Cl [(1R,2R,3S)-2-(3-Phenyl-1,2,4-oxadiazol-5-yl)-3-(4-methylphenyl)-tropane, hydrochloride]	1 mg/kg	
COC(=O)[C@@H]1[C@@H](c2ccc(F)cc2)C[C@@H]2CC[C@H]1N2C [trans isomer of Win 35,428, (1R,2R,3S)-2-carbomethoxy-3-(4-fluorophenyl)tropane]		~50 times
